Measured values from patent US10167259B2, “Allosteric inhibitors of proteasome and methods of use thereof” (THE BOARD OF REGENTS OF THE UNIVERSITY OF TEXAS SYSTEM, priority 2013, dated 2019).

What was measured:
[1] = system: chymotrypsin-like activity of the core particle (CP; 20S); test: Inhibition of chymotrypsin-like peptidase activity of the proteasome core particle; conditions: noncompetitive mechanism
[2] = system: core proteasome activated by Rpt2 and Rpt5 tail peptides; test: Blocking activation of core proteasome chymotrypsin-like activity by Rpt2 and Rpt5 tail peptides; assay type: biochemical; conditions: FIG. 1F
Source text: The grooves are utilized by Rpt2, Rpt3 and Rpt5 subunits that anchor the regulatory particle to the core particle (Lander, et al., 2009). The anchoring C-terminal tails of Rpt2 and Rpt5 subunits are responsible for core particle gate opening and activation (Lander, et al., 2009). Activation of the core by both Rpt2 and Rpt5 tails is affected by B1 (FIG. 2C). The groove accommodating the C-terminal tail of Rpt2 subunit may be a primary docking place for B1, or B1 may allosterically affect binding of Rpt2 C-terminal tail with an exceptionally high efficiency (FIG. 2D). In vitro reconstruction of the 26S proteasome assembly from the core particle (20S) and regulatory particle (19S) components is attenuated by the treatment with B1 (FIG. 2E).

| Structure (SMILES) | Vmax, kinetic parameter of the inhibition of the chymotrypsin-like peptidase [1] | Prevention of activation of the core proteasome by Rpt5 tail peptide, compared with B1 [2] |
| --- | --- | --- |
| COc1cc(CCCOC(=O)C2CCCCN2C(=O)C(=O)C2CCCCC2)cc(OC)c1OC (centres unmarked) [B1] | 0.195 nanomoles of product per mg of proteasome per second |  |
| COc1cc(CCCCCOC(=O)C2CCCCN2C(=O)C(=O)C2CCCCC2)cc(OC)c1OC (centres unmarked) [B5] |  | at least as good as the parent B1 compound |
